## Yeast mating assay 2: variants of the scFv Ab-95

Values reported by Engelhart et al. 2022, doi:10.1038/s41597-022-01779-4 (FLAb copy).

Binding partner: SARS-CoV-2 spike HR2 peptide, sequence PDVDLGDISGINAS.

Ab-95 is the parent antibody, in scFv form: VH, then a 15-residue (Gly4Ser)3 linker, then VL. The heavy chain is unchanged in all variants.
VH: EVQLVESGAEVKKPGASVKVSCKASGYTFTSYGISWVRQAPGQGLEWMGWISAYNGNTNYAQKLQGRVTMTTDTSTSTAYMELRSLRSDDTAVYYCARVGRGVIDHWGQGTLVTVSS
VL: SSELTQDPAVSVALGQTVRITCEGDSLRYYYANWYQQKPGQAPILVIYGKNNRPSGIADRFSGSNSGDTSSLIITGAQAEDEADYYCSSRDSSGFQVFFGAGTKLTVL

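In library AAYL52, one, two or three CDR residues were substituted; doubles and triples were drawn at random. The scFvs were displayed on barcoded MATa yeast, the peptide on MATalpha yeast. Binding brings cells together so that they mate, and sequencing counts the barcode pairs among the diploids. The ratio of observed to expected reads was calibrated, replicate by replicate, on BCL2-family standards whose Kd was known from biolayer interferometry. There are three technical replicates.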

Each variant is given by its three light chain CDRs, as the data file delimits them; those of the parent are EGDSLRYYYAN, GKNNRPS, SSRDSSGFQVF.
This list gathers variants with a substitution at D91 (VL, numbered from residue 1).
Each Kd is an estimate from the mating assay, the geometric mean of the replicates in which the pair was seen; lower is stronger.
An entry "no signal" has no value in the source: the pair was not observed among the diploids in any replicate. This suggests poor binding but is not conclusive.
Parent in this assay: reference entry 200 nM, copy in this library 180 nM.

With EGDSLRYYYAN / GKNNRPS / SSRNLSGFQKF the result was 150 µM (2 of 3 replicates). With EGDSLRYYYAN / GKNRRPS / SSRCSSGFQVF the result was 6.6 µM (2 of 3 replicates). Variant EGDSLRYYYAN / GDNNRPS / SSRASCGFQVF showed 800 nM (2 of 3 replicates). Variant EGDSLRYYYAN / GKNNRPS / SSRASYGFQVF gave 11 µM (3 of 3 replicates). With EGDSLRYYYAN / GKRNRPS / SSRSSSGFQVF the result was 4.1 µM (2 of 3 replicates). Variant EGDSLRYYYAN / GKDARPS / SSRGSSGFQVF gave 1.2 µM (3 of 3 replicates).

With EGDSLRYYYAN / GKNNRPS / SSRGYSGFQVF the result was 3.6 µM (1 of 3 replicates). Variant EGDSLRYYYAN / GKNNRPS / SSRWSSGFQVF showed 2.5 µM (2 of 3 replicates). Variant EGDSLRMYYAN / GKNNEPS / SSRESSGFQVF showed 4.0 µM (2 of 3 replicates). With EGDSLRYYYAN / GKNNRPS / SSRSSSAFQVF the result was 8.5 µM (2 of 3 replicates). For EGDSLVYYYAN / GKNNRPS / SSFGSSGFQVF, the assay gave 560 nM (3 of 3 replicates). With EGDSLRIYYAN / GKNNRAS / SSRLSSGFQVF the result was 9.1 µM (2 of 3 replicates).

Variant EGDSPRYYSAN / GKNNRPS / SSRESSGFQVF showed 2.2 µM (1 of 3 replicates). Variant EGDKLRYYYAN / GKNNRPS / SSRLSSGFQRF showed no signal (0 of 3 replicates). Variant EGDSLRYYYAN / GKNERPS / SSRYSSGFAVF showed 1.4 µM (3 of 3 replicates). Variant EGDSLRYYYAN / GKNNRPT / SSRASSGFQVY showed 2.1 µM (3 of 3 replicates). Variant EGDTLRYYYAN / GKNNRPS / SSCSSSGFQVF showed 74 µM (1 of 3 replicates). Variant EGDQLRYYYAN / GKNPRPS / SSRYSSGFQVF showed no signal (0 of 3 replicates).

For EGDSMRYYMAN / GKNNRPS / SSRMSSGFQVF, the assay gave 6.1 µM (2 of 3 replicates). With EGDSLRYYYAN / GKCNRPS / SQRFSSGFQVF the result was 6.7 µM (3 of 3 replicates). For EGDSLHYYYAN / GKNNRPS / SSRQSSGRQVF, the assay gave 44 µM (1 of 3 replicates). For EGDSLRYYYAN / IKNNRPS / SSRRSYGFQVF, the assay gave 3.5 µM (1 of 3 replicates).

Again, the first 2 entries without any signal:

With EGDKLRYYYAN / GKNNRPS / SSRLSSGFQRF the result was no signal (0 of 3 replicates).
With EGDQLRYYYAN / GKNPRPS / SSRYSSGFQVF the result was no signal (0 of 3 replicates).

Three control strains display no target. For library AAYL52, 28% of the pairings with them gave a signal, with a median of 8.2 µM and one signal in twenty below 800 nM, so weak values seen in few replicates may be background.